Assay results as given in ChEMBL document CHEMBL6182862, “Discovery of novel azetidine-based imidazopyridines as selective and orally bioavailable inhibitors of phosphodiesterase 10A for the treatment of pulmonary arterial hypertension” (Eur J Med Chem, 2025).
Activity calls are given as the source filed them. The rule behind the calls is not given here.

Sequences of proteins named here, by UniProt entry; tags and fusion partners are left off. A change or cut given only in a name is not applied to a line headed by its entry.
UniProt Q13946: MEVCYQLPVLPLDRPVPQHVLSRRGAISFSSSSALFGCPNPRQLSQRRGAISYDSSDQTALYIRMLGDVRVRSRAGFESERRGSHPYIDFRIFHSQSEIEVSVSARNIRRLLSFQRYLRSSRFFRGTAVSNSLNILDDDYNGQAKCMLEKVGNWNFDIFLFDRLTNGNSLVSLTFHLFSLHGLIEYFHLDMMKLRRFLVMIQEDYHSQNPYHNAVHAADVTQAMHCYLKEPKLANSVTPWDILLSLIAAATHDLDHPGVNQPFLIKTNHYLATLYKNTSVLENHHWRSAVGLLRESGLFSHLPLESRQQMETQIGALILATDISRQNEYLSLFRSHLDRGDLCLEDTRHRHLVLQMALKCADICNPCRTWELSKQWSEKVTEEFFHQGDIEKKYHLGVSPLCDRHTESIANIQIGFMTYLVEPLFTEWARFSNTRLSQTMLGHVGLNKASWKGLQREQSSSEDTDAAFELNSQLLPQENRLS
UniProt Q14432: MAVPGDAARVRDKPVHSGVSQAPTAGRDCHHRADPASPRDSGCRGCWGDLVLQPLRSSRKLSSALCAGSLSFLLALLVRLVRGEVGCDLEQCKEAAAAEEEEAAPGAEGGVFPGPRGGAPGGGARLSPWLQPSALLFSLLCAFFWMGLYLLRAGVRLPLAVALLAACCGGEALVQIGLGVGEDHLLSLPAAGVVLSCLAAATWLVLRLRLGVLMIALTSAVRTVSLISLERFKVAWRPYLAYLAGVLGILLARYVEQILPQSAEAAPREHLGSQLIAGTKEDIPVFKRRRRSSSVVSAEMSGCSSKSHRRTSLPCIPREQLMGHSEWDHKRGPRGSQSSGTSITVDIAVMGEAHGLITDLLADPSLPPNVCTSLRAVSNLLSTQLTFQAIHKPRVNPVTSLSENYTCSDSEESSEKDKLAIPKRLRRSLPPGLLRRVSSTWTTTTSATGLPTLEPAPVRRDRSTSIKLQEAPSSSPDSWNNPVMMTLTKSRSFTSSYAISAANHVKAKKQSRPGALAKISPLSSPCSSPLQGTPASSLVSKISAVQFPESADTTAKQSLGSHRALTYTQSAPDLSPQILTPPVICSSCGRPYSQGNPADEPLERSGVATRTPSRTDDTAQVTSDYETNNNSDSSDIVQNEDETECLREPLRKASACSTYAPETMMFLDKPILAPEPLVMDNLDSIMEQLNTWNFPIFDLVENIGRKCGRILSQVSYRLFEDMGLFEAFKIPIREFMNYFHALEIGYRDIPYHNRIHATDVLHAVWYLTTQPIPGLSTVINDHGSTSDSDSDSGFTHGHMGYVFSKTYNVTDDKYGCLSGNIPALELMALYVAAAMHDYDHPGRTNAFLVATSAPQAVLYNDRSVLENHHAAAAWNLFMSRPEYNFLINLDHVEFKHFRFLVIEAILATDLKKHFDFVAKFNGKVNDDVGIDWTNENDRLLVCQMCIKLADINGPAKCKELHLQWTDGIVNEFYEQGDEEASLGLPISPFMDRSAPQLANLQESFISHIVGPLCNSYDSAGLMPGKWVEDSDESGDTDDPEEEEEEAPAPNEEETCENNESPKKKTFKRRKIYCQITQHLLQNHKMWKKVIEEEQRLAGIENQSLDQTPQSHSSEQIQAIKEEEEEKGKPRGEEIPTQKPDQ
UniProt O76083: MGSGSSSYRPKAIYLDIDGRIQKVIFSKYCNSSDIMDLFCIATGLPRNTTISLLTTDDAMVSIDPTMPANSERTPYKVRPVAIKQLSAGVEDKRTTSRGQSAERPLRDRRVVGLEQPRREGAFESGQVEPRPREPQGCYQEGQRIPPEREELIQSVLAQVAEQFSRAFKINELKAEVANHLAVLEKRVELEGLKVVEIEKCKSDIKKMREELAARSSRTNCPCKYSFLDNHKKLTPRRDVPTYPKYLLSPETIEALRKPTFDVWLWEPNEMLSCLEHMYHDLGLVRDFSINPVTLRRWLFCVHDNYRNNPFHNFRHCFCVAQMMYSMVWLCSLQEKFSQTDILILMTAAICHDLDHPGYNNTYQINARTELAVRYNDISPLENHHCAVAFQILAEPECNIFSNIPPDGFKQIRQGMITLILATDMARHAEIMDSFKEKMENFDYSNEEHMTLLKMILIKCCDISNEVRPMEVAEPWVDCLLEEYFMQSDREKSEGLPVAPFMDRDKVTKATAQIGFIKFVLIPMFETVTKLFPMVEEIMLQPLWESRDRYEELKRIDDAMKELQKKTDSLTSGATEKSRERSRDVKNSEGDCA
UniProt Q14123, whole entry: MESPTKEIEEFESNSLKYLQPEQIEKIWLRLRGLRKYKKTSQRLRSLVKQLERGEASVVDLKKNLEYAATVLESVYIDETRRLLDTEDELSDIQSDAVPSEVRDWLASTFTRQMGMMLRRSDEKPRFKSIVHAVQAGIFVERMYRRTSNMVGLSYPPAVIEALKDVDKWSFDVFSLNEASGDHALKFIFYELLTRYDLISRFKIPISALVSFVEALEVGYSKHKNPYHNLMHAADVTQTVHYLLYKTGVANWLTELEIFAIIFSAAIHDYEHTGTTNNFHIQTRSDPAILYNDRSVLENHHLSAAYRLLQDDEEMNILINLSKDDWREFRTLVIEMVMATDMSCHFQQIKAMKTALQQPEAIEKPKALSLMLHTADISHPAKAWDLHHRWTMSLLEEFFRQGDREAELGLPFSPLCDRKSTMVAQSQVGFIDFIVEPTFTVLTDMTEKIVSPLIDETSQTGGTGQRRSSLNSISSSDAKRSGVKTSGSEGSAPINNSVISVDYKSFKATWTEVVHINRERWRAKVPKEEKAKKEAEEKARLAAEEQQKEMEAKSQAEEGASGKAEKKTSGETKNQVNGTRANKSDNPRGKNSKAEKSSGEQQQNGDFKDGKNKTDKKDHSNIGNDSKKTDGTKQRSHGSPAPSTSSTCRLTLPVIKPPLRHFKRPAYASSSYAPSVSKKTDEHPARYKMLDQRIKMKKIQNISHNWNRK
UniProt O00408, whole entry: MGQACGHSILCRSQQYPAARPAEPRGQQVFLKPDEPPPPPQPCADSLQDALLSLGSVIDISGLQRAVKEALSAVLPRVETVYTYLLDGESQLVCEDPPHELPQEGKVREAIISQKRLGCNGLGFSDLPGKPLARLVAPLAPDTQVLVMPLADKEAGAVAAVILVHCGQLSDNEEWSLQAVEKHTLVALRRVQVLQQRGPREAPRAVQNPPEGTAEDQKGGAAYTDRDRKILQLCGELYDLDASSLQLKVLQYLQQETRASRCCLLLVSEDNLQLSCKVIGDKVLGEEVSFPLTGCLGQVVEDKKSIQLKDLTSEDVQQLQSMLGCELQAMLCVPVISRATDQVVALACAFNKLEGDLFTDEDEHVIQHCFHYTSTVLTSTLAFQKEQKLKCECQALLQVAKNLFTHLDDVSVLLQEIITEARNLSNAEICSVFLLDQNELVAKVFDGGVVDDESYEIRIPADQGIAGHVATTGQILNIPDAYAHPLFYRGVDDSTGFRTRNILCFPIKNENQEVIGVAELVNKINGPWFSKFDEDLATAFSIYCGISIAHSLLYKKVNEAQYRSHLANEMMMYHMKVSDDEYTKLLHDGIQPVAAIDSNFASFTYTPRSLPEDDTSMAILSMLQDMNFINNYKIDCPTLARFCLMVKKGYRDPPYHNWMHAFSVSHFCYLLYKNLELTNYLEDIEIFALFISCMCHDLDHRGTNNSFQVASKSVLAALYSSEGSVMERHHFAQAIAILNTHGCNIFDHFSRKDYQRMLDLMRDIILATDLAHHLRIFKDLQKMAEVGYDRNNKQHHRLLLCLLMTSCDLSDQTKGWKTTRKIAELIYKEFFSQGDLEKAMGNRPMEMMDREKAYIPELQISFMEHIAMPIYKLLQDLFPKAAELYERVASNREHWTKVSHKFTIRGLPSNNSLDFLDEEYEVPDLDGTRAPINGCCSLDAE
UniProt Q9HCR9: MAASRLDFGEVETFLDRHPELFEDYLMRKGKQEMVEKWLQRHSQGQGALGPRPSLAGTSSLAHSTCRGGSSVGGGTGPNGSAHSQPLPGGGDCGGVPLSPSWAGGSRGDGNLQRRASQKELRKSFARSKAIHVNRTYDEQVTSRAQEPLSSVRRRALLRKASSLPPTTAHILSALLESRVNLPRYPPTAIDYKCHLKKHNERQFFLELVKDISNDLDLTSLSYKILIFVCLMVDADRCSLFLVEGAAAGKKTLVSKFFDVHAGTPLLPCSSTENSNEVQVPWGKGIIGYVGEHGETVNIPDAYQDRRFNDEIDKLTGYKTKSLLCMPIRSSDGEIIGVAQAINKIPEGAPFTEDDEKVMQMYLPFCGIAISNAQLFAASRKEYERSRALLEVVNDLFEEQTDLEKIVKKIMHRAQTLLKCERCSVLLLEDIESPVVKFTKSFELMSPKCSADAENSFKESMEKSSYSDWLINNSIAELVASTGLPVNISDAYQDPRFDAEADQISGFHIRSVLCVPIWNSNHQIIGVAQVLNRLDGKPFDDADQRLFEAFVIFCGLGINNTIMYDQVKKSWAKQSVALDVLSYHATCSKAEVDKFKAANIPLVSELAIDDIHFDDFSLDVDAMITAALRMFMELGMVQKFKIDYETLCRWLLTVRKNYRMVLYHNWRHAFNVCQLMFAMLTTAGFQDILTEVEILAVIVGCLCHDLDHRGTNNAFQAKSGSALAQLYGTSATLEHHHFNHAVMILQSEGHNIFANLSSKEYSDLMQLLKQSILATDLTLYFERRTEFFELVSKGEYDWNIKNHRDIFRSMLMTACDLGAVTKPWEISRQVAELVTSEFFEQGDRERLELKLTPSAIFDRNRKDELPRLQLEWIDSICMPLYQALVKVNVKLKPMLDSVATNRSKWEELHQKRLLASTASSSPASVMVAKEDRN
UniProt O60658: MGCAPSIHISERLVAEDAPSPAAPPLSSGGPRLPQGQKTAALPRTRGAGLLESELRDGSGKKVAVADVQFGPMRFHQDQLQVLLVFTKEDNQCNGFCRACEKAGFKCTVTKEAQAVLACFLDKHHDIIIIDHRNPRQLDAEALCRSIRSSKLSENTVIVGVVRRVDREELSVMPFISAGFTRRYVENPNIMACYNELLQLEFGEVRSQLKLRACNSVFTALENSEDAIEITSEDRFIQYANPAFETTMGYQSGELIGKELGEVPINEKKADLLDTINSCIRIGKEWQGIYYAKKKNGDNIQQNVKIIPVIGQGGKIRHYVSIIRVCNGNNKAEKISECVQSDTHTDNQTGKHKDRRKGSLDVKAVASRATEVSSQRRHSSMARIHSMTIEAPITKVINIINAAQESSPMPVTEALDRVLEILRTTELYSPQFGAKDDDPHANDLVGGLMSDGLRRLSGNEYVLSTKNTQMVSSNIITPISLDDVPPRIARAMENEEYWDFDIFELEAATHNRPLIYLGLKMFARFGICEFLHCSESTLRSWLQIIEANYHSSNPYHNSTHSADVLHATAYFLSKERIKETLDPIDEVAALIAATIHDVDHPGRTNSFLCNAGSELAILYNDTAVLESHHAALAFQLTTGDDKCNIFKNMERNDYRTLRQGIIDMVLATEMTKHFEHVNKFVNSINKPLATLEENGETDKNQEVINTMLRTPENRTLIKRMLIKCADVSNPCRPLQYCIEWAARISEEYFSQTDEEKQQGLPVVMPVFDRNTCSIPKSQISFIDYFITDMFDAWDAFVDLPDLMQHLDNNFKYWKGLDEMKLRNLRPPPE

Legend:
[1] = tested on: Rattus norvegicus; assay: Anti-pulmonary arterial hypertension in monocrotaline-induced pulmonary hypertension Sprague-Dawley rat model assessed as decrease in RVSP level at 5 mg/kg, po administered via gavage for 3 weeks and measured on day 22; type: functional, organism-based; details: time 22.0 day
[2] = target: cGMP-specific 3',5'-cyclic phosphodiesterase (Homo sapiens, UniProt O76074); assay: Inhibition of PDE5A (unknown origin) using 3H-cGMP as substrate at 10 micromol/L relative to control; details: dose 10.0 µmol/L
[3] = target: High affinity 3',5'-cyclic-AMP phosphodiesterase 7A (Homo sapiens, UniProt Q13946); assay: Inhibition of PDE7A (unknown origin) using 3H-cAMP as substrate at 10 micromol/L relative to control; details: dose 10.0 µmol/L
[4] = target: cGMP-inhibited 3',5'-cyclic phosphodiesterase 3A (Homo sapiens, UniProt Q14432); assay: Inhibition of PDE3A (679 to 1087 residues) (unknown origin) using 3H-cAMP as substrate at 10 micromol/L relative to control; details: dose 10.0 µmol/L
[5] = target: High affinity cGMP-specific 3',5'-cyclic phosphodiesterase 9A (Homo sapiens, UniProt O76083); assay: Inhibition of recombinant PDE9A (unknown origin) using 3H-cGMP as substrate at 10 micromol/L relative to control; details: dose 10.0 µmol/L
[6] = target: Dual specificity calcium/calmodulin-dependent 3',5'-cyclic nucleotide phosphodiesterase 1C (Homo sapiens, UniProt Q14123); assay: Inhibition of PDE1C (147 to 531 residues) (unknown origin) using 3H-cGMP/3H-cAMP as substrate at 10 micromol/L relative to control; details: dose 10.0 µmol/L
[7] = target: cGMP-dependent 3',5'-cyclic phosphodiesterase (Homo sapiens, UniProt O00408); assay: Inhibition of PDE2A (580 to 919 residues) (unknown origin) using 3H-cGMP as substrate at 10 micromol/L relative to control; details: dose 10.0 µmol/L
[8] = target: Dual 3',5'-cyclic-AMP and -GMP phosphodiesterase 11A (Homo sapiens, UniProt Q9HCR9); assay: Inhibition of PDE11A (unknown origin) using 3H-cGMP/3H-cAMP as substrate at 10 micromol/L relative to control; details: dose 10.0 µmol/L
[9] = target: High affinity cAMP-specific and IBMX-insensitive 3',5'-cyclic phosphodiesterase 8A (Homo sapiens) (UniProt O60658); assay: Inhibition of PDE8A (unknown origin) using 3H-cAMP as substrate at 10 micromol/L relative to control; details: dose 10.0 µmol/L

inhibition [2] | inhibition [3] | inhibition [4] | inhibition [5] | inhibition [6] | inhibition [7] | inhibition [8] | inhibition [9] | Compound | Activity [1]
– | – | – | – | – | – | – | – | Cn1cc(-c2ccncc2)c(-c2ccc(OCc3ccc4ccccc4n3)cc2)n1 | Active
– | – | – | – | – | – | – | – | CN1CC(=O)N2[C@H](c3ccc4c(c3)OCO4)c3[nH]c4ccccc4c3C[C@@H]2C1=O | Active
< 50% | < 50% | < 50% | < 50% | < 50% | < 50% | < 50% | < 50% | CCOC(=O)c1c(C2CN(c3cc(C(=O)NCCN(CC)CC)c4ccccc4n3)C2)nc2ccccn12 | –
